Experiments:
[1] = target: Dual specificity protein kinase CLK3 (Homo sapiens, UniProt P49761); assay: Binding affinity to Clk3 assessed as dissociation constant
[2] = target: Dual specificity protein kinase CLK4 (Homo sapiens, UniProt Q9HAZ1); assay: Binding affinity to Clk4 assessed as dissociation constant
[3] = target: Casein kinase I isoform delta (Homo sapiens, UniProt P48730); assay: Binding affinity to CSNK1D assessed as dissociation constant
[4] = target: Casein kinase I isoform epsilon (Homo sapiens, UniProt P49674); assay: Binding affinity to CSNK1E assessed as dissociation constant
[5] = target: Dual specificity tyrosine-phosphorylation-regulated kinase 1A (Homo sapiens, UniProt Q13627); assay: Binding affinity to Dyrk1A assessed as dissociation constant

The chains behind the UniProt entries cited, without tags or fusion partners. Where a name states a change or a piece, a line headed by the entry shows the natural chain unless it says otherwise.
UniProt P49761: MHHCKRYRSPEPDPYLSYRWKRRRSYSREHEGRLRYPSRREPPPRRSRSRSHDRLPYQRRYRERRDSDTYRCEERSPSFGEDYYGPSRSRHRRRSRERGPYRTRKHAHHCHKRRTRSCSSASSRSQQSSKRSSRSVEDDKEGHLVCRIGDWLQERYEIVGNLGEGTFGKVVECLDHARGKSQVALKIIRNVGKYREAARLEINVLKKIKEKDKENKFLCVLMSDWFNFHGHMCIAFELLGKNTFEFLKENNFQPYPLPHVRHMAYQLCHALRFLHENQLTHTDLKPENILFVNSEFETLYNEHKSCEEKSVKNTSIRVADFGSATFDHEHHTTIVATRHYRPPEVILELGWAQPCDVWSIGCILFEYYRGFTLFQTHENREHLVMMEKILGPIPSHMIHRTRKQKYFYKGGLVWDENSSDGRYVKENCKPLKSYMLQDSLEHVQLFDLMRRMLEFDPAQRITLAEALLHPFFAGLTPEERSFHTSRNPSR
UniProt Q9HAZ1: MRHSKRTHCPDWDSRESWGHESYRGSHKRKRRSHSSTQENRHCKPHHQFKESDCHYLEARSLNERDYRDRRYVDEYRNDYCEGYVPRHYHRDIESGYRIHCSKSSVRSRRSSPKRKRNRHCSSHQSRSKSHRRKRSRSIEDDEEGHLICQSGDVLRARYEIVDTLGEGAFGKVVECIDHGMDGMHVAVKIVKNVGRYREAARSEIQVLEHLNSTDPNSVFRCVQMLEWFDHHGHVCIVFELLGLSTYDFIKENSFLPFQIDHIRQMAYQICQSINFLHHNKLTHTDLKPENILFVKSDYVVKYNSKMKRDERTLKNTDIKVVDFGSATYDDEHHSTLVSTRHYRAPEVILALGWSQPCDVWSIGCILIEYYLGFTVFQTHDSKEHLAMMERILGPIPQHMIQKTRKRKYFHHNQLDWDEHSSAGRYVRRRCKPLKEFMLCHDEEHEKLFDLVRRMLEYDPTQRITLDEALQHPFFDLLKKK
UniProt P48730: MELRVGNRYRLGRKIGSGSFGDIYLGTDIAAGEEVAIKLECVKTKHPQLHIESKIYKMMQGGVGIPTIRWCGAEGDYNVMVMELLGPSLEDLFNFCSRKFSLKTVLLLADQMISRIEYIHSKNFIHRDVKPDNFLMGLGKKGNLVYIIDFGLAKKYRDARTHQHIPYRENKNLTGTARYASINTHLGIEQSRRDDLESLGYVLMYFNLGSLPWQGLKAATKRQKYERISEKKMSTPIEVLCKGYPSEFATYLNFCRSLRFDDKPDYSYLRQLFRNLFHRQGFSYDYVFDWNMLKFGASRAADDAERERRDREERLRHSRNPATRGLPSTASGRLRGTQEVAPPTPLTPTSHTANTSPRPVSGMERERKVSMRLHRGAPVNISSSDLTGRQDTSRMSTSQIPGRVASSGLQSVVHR
UniProt P49674: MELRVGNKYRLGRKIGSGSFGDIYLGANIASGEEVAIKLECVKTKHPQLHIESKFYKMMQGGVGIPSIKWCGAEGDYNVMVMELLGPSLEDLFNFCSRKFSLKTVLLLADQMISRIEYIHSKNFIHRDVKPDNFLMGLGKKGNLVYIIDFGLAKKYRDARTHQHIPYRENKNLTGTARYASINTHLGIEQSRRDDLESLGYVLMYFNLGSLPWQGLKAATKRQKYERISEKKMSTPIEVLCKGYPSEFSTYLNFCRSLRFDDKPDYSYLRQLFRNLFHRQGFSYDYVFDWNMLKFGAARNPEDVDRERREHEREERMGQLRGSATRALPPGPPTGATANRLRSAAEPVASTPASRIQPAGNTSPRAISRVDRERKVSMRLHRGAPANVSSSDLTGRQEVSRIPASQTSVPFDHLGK

CCN1/C(=C/C(C)=O)Sc2ccc(OC)cc21
Kd [1]: 3000 nM
Kd [2]: 30 nM
Kd [3]: 150 nM
Kd [4]: 300 nM
Kd [5]: 12 nM

— ChEMBL document CHEMBL1156118, “Evaluation of substituted 6-arylquinazolin-4-amines as potent and selective inhibitors of cdc2-like kinases (Clk)” (Bioorg Med Chem Lett, 2009)
